# Values quoted from earlier work in patent US8178525B2 (priority 2008, dated 2012).
# Protein sequences, listed by entry. Tags and fused reporters are not part of them. Lines headed by an entry give the natural chain unless they say otherwise; changes in a name come on top.
# UniProt P00742: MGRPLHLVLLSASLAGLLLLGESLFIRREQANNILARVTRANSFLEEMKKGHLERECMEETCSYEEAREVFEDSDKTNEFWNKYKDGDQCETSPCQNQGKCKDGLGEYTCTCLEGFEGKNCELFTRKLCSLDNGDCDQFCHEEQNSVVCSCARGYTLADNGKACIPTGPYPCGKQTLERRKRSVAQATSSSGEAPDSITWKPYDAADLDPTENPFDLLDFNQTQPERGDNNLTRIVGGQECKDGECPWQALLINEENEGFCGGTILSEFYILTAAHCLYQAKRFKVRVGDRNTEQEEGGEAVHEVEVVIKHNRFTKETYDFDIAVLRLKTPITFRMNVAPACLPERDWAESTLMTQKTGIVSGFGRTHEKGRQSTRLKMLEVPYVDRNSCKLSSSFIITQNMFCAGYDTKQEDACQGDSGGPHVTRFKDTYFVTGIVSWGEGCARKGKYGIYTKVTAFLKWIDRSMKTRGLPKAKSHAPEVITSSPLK
# Target: factor Xa (Homo sapiens, UniProt P00742)
# Settings: read-out: Ki value against factor Xa; cited from earlier work
row,Substance,Ki [nM]
1,antistasin,0.05
2,tick anti-coagulant peptide,0.5
